Lamin A splicing: changes lamin A minigene splicing in HeLa cells | 200,000 tested, 0.01% active | Potency, µM (series often up to 46.1 µM), inactives show top-dose ratio change, negative = inhibition, usual class: inhibitors | HeLa LMNA splicing GFP/RFP minigene ratio, 48 h; active means well fitted inhibition curve with a large enough effect in the signal ratio, with a control signal flat, not every such curve was filed as active; inconclusive means small, poorly fitted or top-dose-only effect, or effect the other way, or a change in a side signal; the % refers to the signal ratio; further: potency means the concentration at half of the fitted maximal effect; on the % scale 0 is the no-effect control and ±100 the full control effect
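S3 HeLa cells stably expressing lamin A-EGFP splicing minigene plus DsRed2, 600 cells/well, 48 h compound exposure at 37C. Laser-scanning cytometry; analysed as GFP (500-530 nm)/RFP (575-640 nm) total intensity ratio; 0.5% DMSO vehicle.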
G9a inh: inhibitors of human histone lysine methyltransferase G9a | G9a H3K9 monomethylation, AlphaScreen, 2 h | Potency, µM (titrated, usually from 102 µM), for the others: top-dose activity, negative = inhibition, actives largely listed as inhibitors | 350,000 tested, 8.8% active | AID 504332; further: potency means the concentration at half of the fitted maximal effect; on the % scale 0 is the no-effect control and ±100 the full control effect; nearly all actives have a fitted effect of over 75% in size
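Chemiluminescent proximity detection of H3K9 monomethylation, read after 10 min bead incubation in the dark. Reaction: 20 nM G9a, 500 nM biotin-H3K9 peptide, 20 uM SAM cofactor, 2 h, room temperature, following 15 min enzyme-compound preincubation.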
Sfp inh: qHTS Assay for Inhibitors of Bacillus subtilis Sfp phosphopantetheinyl transferase (PPTase); 4'-phosphopantetheinyl transferase ffp (Bacillus subtilis), Q9F4F7; Biochemical Sfp PPTase activity, qHTS; Potency, µM, for inactives: max response, negative = inhibition, most hits filed as inhibitors; hit rate 3.5% among 310,000; AID 1490, 2009; active = well fitted inhibition curve with a large enough effect; inconclusive = small, poorly fitted or top-dose-only effect, or another doubt; inactive = no such curve, though single readings can be large or run the other way;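 also: the enzyme is Sfp with the accession as filed and its product quenches rhodamine fluorescence; potency is read from the fitted curve at half-maximal effect; 0% = enzyme reaction without inhibitor and -100% = no enzyme wells; top concentration of the series not given in the record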
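Buffer: 50 mM Hepes-Na pH 7.6, 10 mM MgCl2, 0.01% Nonidet P-40, 0.01% BSA. Enzyme 15 nM, pre-exposed to compound 15 min; substrates then added and fluorescence change tracked over 30 min.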
miR-21 reporter: raises the signal of a miR-21 reporter | HeLa miR-21 FLuc reporter, luciferase, 48 h | Potency, µM (highest dose often 38.3 µM), inactives show at the highest dose reporter change, positive = more light | 340,000 tested, under 10 active | AID 2288; active = well fitted rising curve with a large enough effect; inconclusive = small, poorly fitted or top-dose-only effect; inactive = no such curve, though single readings can be large or run the other way;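 note: % of control where 0% means no effect; miR-21 action dims this reporter so a rising signal means less miR-21 action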
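Using DMEM plus 10% FBS, HeLa miR-21-FLuc cells are incubated with test compounds (final up to about 40uM) for 48 hours; firefly luciferase signal is then imaged following reagent-mediated lysis.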
ALDH1A1 inh: blocks purified human ALDH1A1 activity; AID 1030; 220,000 tested, 7.3% active; Purified ALDH1A1, NADH fluorescence, propionaldehyde substrate; P00352; Potency, µM (series often up to 75.3 µM), without a hit: at the highest dose activity, negative = inhibition, most hits filed as inhibitors; active means well fitted inhibition curve with a large enough effect, not every such curve was filed as active; inconclusive means small, poorly fitted or top-dose-only effect, or another doubt; inactive means no such curve, though single readings can be large or run the other way;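 further: potency means the concentration at half of the fitted maximal effect; plate controls were no enzyme wells and a reference inhibitor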
JMJD2E inh: blocks human JMJD2E demethylase activity; 230,000 tested, 1.6% active; JMJD2E catalytic domain, FDH-coupled NADH fluorescence (FDH is formaldehyde dehydrogenase); AID 2147; Potency, µM (top dose mostly 57.1 µM), for the others: top-dose activity change, negative = inhibition, hits mostly inhibitors; active means well fitted inhibition curve with a large enough effect, not every such curve was filed as active; inconclusive means small, poorly fitted or top-dose-only effect, or another doubt; inactive means no such curve, though single readings can be large or run the other way;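 further: potency means the concentration at half of the fitted maximal effect; 0% = wells with enzyme and -100% = buffer wells without enzyme; nearly all actives have a fitted effect of over 50% in size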
The depositor's hits bear a star; ? = inconclusive; · = no result; [ ] = dose if it differs, or a comment. This is a sample that favours compounds with a hit; in the whole collection about 13% have one here. Unless noted, the call rests on the fitted dose curve; in most records, active means well fitted curve in the direction sought with a large enough effect; inconclusive means small, poorly fitted or top-dose-only effect, or another doubt; inactive means no such curve, though single readings can be large; an effect the other way counts as inactive or inconclusive.

# | mol | Lamin A splicing | G9a inh | Sfp inh
1 | CCC(C)NC(=O)c1sc2nc3n(c(=O)c2c1C)CCC3 (stereo not drawn) | -8.6%[46 µM] | -7.7%[59 µM] | ·
2 | CCc1ccc(S(=O)(=O)c2nnn3c2nc(Nc2cccc(C)c2C)c2sccc23)cc1 | · | 3.0%[59 µM] | ·
3 | COc1ccccc1NC(=O)CCN1C(=O)C2C3CCC(C3)C2C1=O (stereo not drawn) | · | -6.3% | 16.5%
4 | COc1ccc(Nc2cc(C(=O)NC3CCCC3)c3ccccc3n2)c(OC)c1 | · | 21.1% | 19.0%
5 | CCOC(=O)C(=O)Nc1sc(C(=O)N(CC)CC)c(C)c1C#N | ? | 50.1µM* | -12.7%
6 | CCOC(=O)c1c(NC(=O)OC)sc(C(=O)N(CC)CC)c1C | 0.9% | ? | 22.4µM*
7 | CCN(CC)C(=O)c1sc(NC(=O)Cc2ccccc2)c(C#N)c1C | -3.7% | 1.0%[59 µM] | -1.1%
8 | CCC(=O)Nc1sc(C(=O)OC)c(C)c1C(=O)OC | -4.8% | 28.2µM* | -29.8%
9 | CCN(CC)C(=O)c1sc(N)c(C(=O)OC(C)C)c1C | -9.3% | 11.2µM* | -2.2%
10 | CCc1cc2c(c(CC)n1)CCC(=O)N2Cc1ccc(-c2ccccc2-c2nn[nH]n2)cc1 | · | · | -2.4%
11 | COc1cccc(-c2c(C#N)c(N)nc3c2c(=O)nc2sccn23)c1 | · | 5.9% | 18.1%
12 | Cc1cc(C)nc(NC(=O)c2cc(-c3ccc(C)s3)nc3ccccc23)c1 | ? | 63.8%[59 µM] | -9.0%
13 | CCN(CC)C(=O)c1sc(NC(=O)c2ccoc2C)c(C(=O)OC)c1C | 6.1% | 12.6µM* | 31.6µM*
14 | CCN(CC)C(=O)c1sc(NC(=O)c2cc(-c3ccc(C)s3)nc3ccccc23)c(C(=O)OC)c1C | 5.3% | 39.8µM* | 12.6µM*
15 | CCN(CC)C(=O)c1sc(NC(=O)c2ccncc2)c(C(=O)OC)c1C | 2.0% | ? | 28.2µM*

# | miR-21 reporter | ALDH1A1 inh | JMJD2E inh
1 | -23.1% | · | ·
2 | -2.6% | · | ·
3 | -3.2% | · | ·
4 | 2.6% | · | ·
5 | -0.6% | -1.9% | -8.7%
6 | -4.2% | ? | 0.5%
7 | -12.4% | ? | 7.5%
8 | 1.2% | ? | -1.8%
9 | -14.9% | ? | -0.7%
10 | · | 5.6% | 3.1%
11 | 0.6% | 6.8% | -4.4%
12 | -1.7% | ? | ?
13 | -5.2% | 22.4µM* | -6.9%
14 | -5.2% | ? | ?
15 | -2.2% | 14.1µM* | -8.5%

The list goes on:
# | mol | Lamin A splicing | G9a inh | Sfp inh
16 | CCc1cc(C(=O)OC)c(NC(=O)c2ccoc2C)s1 | · | -4.8% | -8.4%
17 | CCOC(=O)c1c(NC(=O)Nc2ccc(F)cc2)sc(C(=O)N(C)C)c1C | · | -7.6%[59 µM] | ·
18 | CCOC(=O)c1c(NC(=O)c2ccoc2C)sc(C(=O)N(C)C)c1C | -2.0% | 31.6µM* | -8.7%
19 | CCn1c(CN2CCOCC2)nnc1SCC(=O)Nc1ccc(C(C)=O)cc1 | · | 70.0% | 15.0%
20 | Cc1ccc(CCc2nnc(SCC(=O)Nc3cc(Cl)ccc3Cl)n2-c2ccccc2)o1 | ? | ? | -17.7%
21 | O=C(CSc1nnc(CN2CCOCC2)n1-c1ccccc1)Nc1ccc(Cl)cc1 | -1.0% | ? | 5.1%
22 | Cc1ccc(CCC(=O)Nc2cc(Cl)ccc2Cl)o1 | · | -1.3% | 6.6%
23 | Cc1nnc(SCC(=O)Nc2ccc(N3CCOCC3)cc2)n1-c1ccccc1 | 16.3% | ? | ?
24 | Clc1ccc(CSc2nnc(CN3CCOCC3)n2-c2ccccc2)cc1Cl | 2.7% | 2.2%[59 µM] | 9.6%
25 | Cc1ccc(NC(=O)CSc2nnc(CN3CCOCC3)n2-c2ccccc2)cc1 | -6.7% | -47.4%[59 µM] | 13.4%
26 | CCN(CC(=O)Nc1ccc(NC(C)=O)cc1)C(=O)CCCc1nc2ccccc2s1 | · | 7.0%[12.7 µM] | ·
27 | Cc1ccc(S(=O)(=O)N/N=C2/CC(c3ccccc3)Oc3ccccc32)cc1[N+](=O)[O-] (stereo not drawn) | -14.6% | 39.8µM* | 3.2%
28 | Cc1ccc(S(=O)(=O)Nc2ccc(N3CCOCC3)cc2)cc1[N+](=O)[O-] | ? | ? | -1.5%
29 | O=S(=O)(N/N=C1/CC(c2ccccc2)Oc2ccccc21)c1ccc(Br)cc1 (stereo not drawn) | -14.2% | ? | 7.0%
30 | Fc1ccc(N/N=C2/CC(c3ccccc3)Oc3ccccc32)c(F)c1 (stereo not drawn) | 20.4% | 10µM* | ?

# | miR-21 reporter | ALDH1A1 inh | JMJD2E inh
16 | -1.8% | · | ·
17 | 0.7% | · | ·
18 | -20.5% | 20µM* | ?
19 | -0.2% | · | ·
20 | -1.2% | 25.1µM* | -8.2%
21 | 0.0% | 22.4µM* | 6.6%
22 | -6.9% | · | ·
23 | 0.3% | -5.9% | -7.3%
24 | 9.5% | 17.8µM* | 0.7%
25 | -0.7% | 3.16µM* | -2.2%
26 | · | · | ·
27 | -40.2% | 7.08µM* | -20.0%
28 | 2.9% | ? | -8.4%
29 | -9.1% | 22.4µM* | 7.3%
30 | -8.8% | ? | 6.4%

Three structures from above, ordered by SMILES length, smallest number first:
# | mol | Lamin A splicing | G9a inh | Sfp inh
22 | Cc1ccc(CCC(=O)Nc2cc(Cl)ccc2Cl)o1 | · | -1.3% | 6.6%
16 | CCc1cc(C(=O)OC)c(NC(=O)c2ccoc2C)s1 | · | -4.8% | -8.4%
25 | Cc1ccc(NC(=O)CSc2nnc(CN3CCOCC3)n2-c2ccccc2)cc1 | -6.7% | -47.4%[59 µM] | 13.4%

# | miR-21 reporter | ALDH1A1 inh | JMJD2E inh
22 | -6.9% | · | ·
16 | -1.8% | · | ·
25 | -0.7% | 3.16µM* | -2.2%

(list continues)
# | mol | Lamin A splicing | G9a inh | Sfp inh
31 | O=S(=O)(N/N=C1\CCCc2ccccc21)c1ccccc1 | · | 15.1%[12.7 µM] | ·
32 | CNC(=S)N/N=C1\CC(c2ccccc2)Oc2ccccc21 (stereo not drawn) | · | 16.1% | 30.2%
33 | CC1CCCCN1C(=O)COC(=O)c1ccc(=O)n(Cc2ccccc2)n1 (stereo not drawn) | · | 23.4%[2.33 µM] | ·
34 | CC(Sc1nnc(NCc2ccccc2)s1)C(=O)Nc1ccc2c(c1)C(=O)c1ccccc1C2=O (stereo not drawn) | -10.1% | 3.16µM* | -4.5%
35 | CC(Sc1nnc(Nc2ccccc2)s1)C(=O)Nc1nc(-c2ccccc2)cs1 (stereo not drawn) | · | ? | 29.4%
36 | COC(=O)c1ccccc1NC(=O)c1sc(N)nc1C | -1.8% | -2.7% | -1.7%
37 | Cn1c(N)c(C(=O)NCc2ccccc2)sc1=S | 3.6% | ? | 22.4µM*
38 | COC(=O)c1ccccc1NC(=O)c1sc(=S)n(C)c1N | 10.1% | 7.94µM* | 25.1µM*
39 | Cn1c(N)c(C(=O)Nc2c(Cl)cccc2Cl)sc1=S | · | 50.1µM* | 0.0%
40 | COc1ccccc1CNc1nc(-c2cccnc2)nc2ccccc12 | ? | -2.7%[0.501 µM] | -14.8%
41 | COc1ccc(C(=O)NCCN2CCOCC2)cc1S(=O)(=O)Nc1ccc(C)cc1 | · | 9.0%[2.33 µM] | ·
42 | Cc1cc(=O)n2nc(N3CCCC3C(=O)Nc3cccc(F)c3)sc2n1 (stereo not drawn) | · | 26.9% | 11.7%
43 | Cc1ccc(Nc2c(-c3ccc(N(C)C)cc3)nc3ncccn23)cc1 | · | -14.6% | -6.8%
44 | Cc1cccc(C)c1Nc1c(-c2cccs2)nc2ncccn12 | · | -27.7%[59 µM] | ·
45 | Cc1cccc(C)c1Nc1c(-c2ccc(N3CCOCC3)cc2)nc2ncccn12 | -5.0% | 8.91µM* | -20.8%
46 | Cc1ccc(Nc2c(-c3ccc(N4CCOCC4)cc3)nc3ncccn23)c(C)c1 | 12.1% | 79.4µM* | -7.2%
47 | O=Nc1c(-c2c(O)[nH]c3ccccc23)[nH]c2ccccc12 | ? | 8.91µM* | -27.6%

# | miR-21 reporter | ALDH1A1 inh | JMJD2E inh
31 | · | · | ·
32 | 8.6% | 3.6% | -3.4%
33 | · | · | ·
34 | -45.8% | 2.82µM* | ?
35 | 16.2% | -1.5% | -2.0%
36 | -34.4% | ? | -14.7%
37 | -6.9% | 20µM* | -0.6%
38 | -2.7% | 20µM* | -9.7%
39 | 2.6% | · | 5.7%
40 | · | ? | ·
41 | · | · | ·
42 | -7.1% | · | ·
43 | -36.0% | ? | 4.1%
44 | 4.6% | · | ·
45 | 4.7% | -1.6% | -3.5%
46 | -12.5% | 0.7% | -2.0%
47 | · | -9.1% | 7.9%

Screening data as filed in PubChem BioAssay.
